The list shows a part of the results, in another mix than the full data. Some results for these compounds are left out of this collection, so the calls shown say nothing about other tests. Activity calls are given as the source filed them.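 The calls were made as follows: active = more than half of replicate wells show activity change below -50%, luminescence cut by over half; inconclusive = some wells, but at most half, below -50%; inactive = no replicate well below -50%.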
test: HSF1 inhibitors in luciferase reporter cells, primary screen, cell-based, NIH3T3, luminescence (AID 2098); conditions: NIH3T3-HGL HSE-luciferase, MG132-induced, luminescence 8 h; stronger effect = lower value; screened at 7.5 µM (by protocol);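 also: luciferase reports HSF-1 transcriptional activity via heat shock element; 0% = median of DMSO wells and -100% = zero luminescence signal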

Structure (SMILES)	activity change, negative = inhibition
COc1cc(SC)ccc1C(=O)NCC1(N(C)C)CCCCC1	inactive: -4.37%
CCN(CC)CC(C)C(C)OC(=O)C(O)(c1ccccc1)c1ccccc1 (centres undefined)	inactive: 5.15%
CC(C)N1C(=O)CC2(CCN(CCOC(=O)C(O)(c3ccccc3)c3ccccc3)CC2)C1=O	inactive: 5.43%
Cc1ccc(C(=O)NCC2(N3CCCCC3)CCCCC2)cc1	inactive: 0.731%
O=C(NCC1(N2CCCCC2)CCCCC1)c1cc([N+](=O)[O-])ccc1Cl	inactive: 1.59%
CN1[C@@H]2CC[C@H]1CC(OC(=O)C(O)(c1ccccc1)c1ccccc1)C2 (some centres undefined)	inactive: -16.9%
O=C(NCC1(N2CCCCC2)CCCCC1)c1cc(F)c(F)cc1Cl	inactive: 4.59%
C=CCN1CCN(CCOC(=O)C(O)(c2ccccc2)c2ccccc2)CC1	inactive: -6.89%
COc1ccc(C(=O)NCC2(N(C)C)CCCCC2)cc1	inactive: -2.72%
O=C(NCC1(N2CCCCC2)CCCCC1)c1cccc(Br)c1	inactive: -3.9%
CCN1CCCC(OC(=O)C2(O)c3ccccc3C=Cc3ccccc32)C1 (centres undefined)	inactive: -24.7%
Cc1cc(C(=O)NCC2(N3CCCCC3)CCCCC2)ccc1[N+](=O)[O-]	inactive: -8.77%
CN(C)c1ccc(C(=O)NCC2(N(C)C)CCCCC2)cc1	inactive: -1.74%
CN(C)C1CCCC1OC(=O)C(O)(c1ccccc1)c1ccccc1 (centres undefined)	inactive: 5.12%
Cc1ccccc1C(=O)NCC1(N2CCCCC2)CCCCC1	inactive: 5.01%
COc1ccc(Cl)cc1C(=O)NCC1(N(C)C)CCCCC1	inactive: -10.6%
COc1cccc(C(=O)NCC2(N3CCCCC3)CCCCC2)c1	inactive: -8.16%
O=C(NCC1(N2CCCCC2)CCCCC1)c1cccc(Cl)c1	inactive: -6.95%
CN(C)C1(CNC(=O)c2ccc(Br)cc2)CCCCC1	inactive: -0.567%
COc1cc(C(=O)NCC2(N(C)C)CCCCC2)c([N+](=O)[O-])cc1OC	inactive: 38.5%
COc1ccc(Br)c(C(=O)NCC2(N3CCCCC3)CCCCC2)c1	inactive: -5.99%
CC(C)Oc1ccc(C(=O)NCC2(N(C)C)CCCCC2)cc1	inactive: -1.84%
CN(C)c1cccc(C(=O)NCC2(N(C)C)CCCCC2)c1	inactive: -8.34%
O=C(OC1CN2CCC1CC2)C(CO)(c1ccccc1)c1ccccc1 (centres undefined)	inactive: -7.97%
